Test results: ChEMBL document CHEMBL6121047, “Design, Synthesis, and Evaluation of Selective PDE4 Inhibitors for the Therapy of Pulmonary Injury” (J Med Chem, 2025)

Experiments:
RAW264.7 [1] = experiment: Anti-inflammatory activity in LPS-induced mouse RAW264.7 cells assessed as inhibition of IL-6 secretion preincubated with compound for 1 hr followed by LPS addition and measured after 24 hrs by ELISA; type: functional, cell-based; details: dose 0.1-100 µM, time 25.0 hrs
RAW264.7 [2] = experiment: Anti-inflammatory activity in LPS-induced mouse RAW264.7 cells assessed as inhibition of TNF-alpha secretion preincubated with compound for 1 hr followed by LPS addition and measured after 24 hrs by ELISA; type: functional, cell-based; details: dose 0.1-100 µM, time 25.0 hrs

Question: Which Activity (RAW264.7 [1]) does the source give for `O=C(Nc1nccs1)c1cccc2[nH]c(-c3ccc(OC(F)F)c(OCC4CC4)c3)nc12` here?
Answer: Dose-dependent-effect

Question: What about the Activity (RAW264.7 [2]) of the same molecule?
Answer: Dose-dependent-effect
